# Test results reported in patent US20090253669A1, “Substituted Sulfonamide Compounds” (GRUENENTHAL GmbH, priority 2008, published 2009).
# Sequences of proteins named here, by UniProt entry; tags and fusion partners are left off.
# UniProt P35372, whole entry, looked up: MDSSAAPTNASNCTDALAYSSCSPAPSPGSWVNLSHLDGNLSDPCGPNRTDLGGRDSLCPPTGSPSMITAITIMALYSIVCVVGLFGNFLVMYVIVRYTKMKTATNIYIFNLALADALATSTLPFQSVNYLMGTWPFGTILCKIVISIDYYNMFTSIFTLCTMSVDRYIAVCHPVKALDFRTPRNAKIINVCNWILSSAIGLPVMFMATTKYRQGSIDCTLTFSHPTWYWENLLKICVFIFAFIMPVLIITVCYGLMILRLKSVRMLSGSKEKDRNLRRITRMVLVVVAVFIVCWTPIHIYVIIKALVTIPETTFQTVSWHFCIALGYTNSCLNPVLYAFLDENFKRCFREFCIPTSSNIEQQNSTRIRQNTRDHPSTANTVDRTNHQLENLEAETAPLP
# Target: human μ opiate receptor (Homo sapiens, UniProt P35372)
# Test: [3H]-naloxone displacement, SPA, membranes of CHO-K1 cells
# Settings: 1 μM test substance; inhibition of specific binding of 1 nmol/l [3H]-naloxone
row,SMILES,μ opioid receptor [1 μM] % inhibition [%]
1,"COc1cc(C)c(S(=O)(=O)N(C)CCOCC(=O)N(C)CC2CCC(CCc3ccccc3)(N3CCN(C)CC3)CC2)c(C)c1 (stereo not shown) [Compound 165, 2-(2-(4-methoxy-N,2,6-trimethylphenylsulfonamido)ethoxy)-N-methyl-N-((4-(4-methylpiperazin-1-yl)-4-phenethylcyclohexyl)methyl)acetamide]",27
2,"CN(CCC1CCC(Cc2ccccc2)(N(C)C)CC1)C(=O)CC(NS(=O)(=O)c1ccc2ccccc2c1)c1ccccc1 (stereo not shown) [Compound 86, N-(2-(4-benzyl-4-(dimethylamino)cyclohexyl)ethyl)-N-methyl-3-(naphthalene-2-sulfonamido)-3-phenylpropanamide]",76
3,"CN1CCN(C2(CCc3ccccc3)CCC(CN(C)C(=O)COCC3CCCCN3S(=O)(=O)c3c(Cl)cc(Cl)cc3Cl)CC2)CC1 (stereo not shown) [Compound 161, N-methyl-N-((4-(4-methylpiperazin-1-yl)-4-phenethylcyclohexyl)methyl)-2-((1-(2,4,6-trichlorophenylsulfonyl)piperidin-2-yl)methoxy)acetamide]",13
4,"CN(CC1CCC(CCc2ccccc2)(N2CCCC2)CC1)C(=O)CC(NS(=O)(=O)c1ccc2ccccc2c1)c1ccccc1 (stereo not shown) [Compound 89, N-methyl-3-(naphthalene-2-sulfonamido)-N-((4-phenethyl-4-(pyrrolidin-1-yl)cyclohexyl)methyl)-3-phenylpropanamide]",47
5,"O=C(COC1CCCN(S(=O)(=O)c2c(Cl)cc(Cl)cc2Cl)C1)NC1CCC(c2ccccc2)(N2CCCC2)CC1 (stereo not shown) [Compound 194, N-(4-phenyl-4-(pyrrolidin-1-yl)cyclohexyl)-2-(1-(2,4,6-trichlorophenylsulfonyl)piperidin-3-yloxy)acetamide]",95
6,"COc1cc(C)c(S(=O)(=O)N(C)CCOCC(=O)NC2CCC(Cc3ccccc3)(N3CCCCCC3)CC2)c(C)c1 (stereo not shown) [Compound 20, N-(4-(azepan-1-yl)-4-benzylcyclohexyl)-2-(2-(4-methoxy-N,2,6-trimethylphenylsulfonamido)ethoxy)acetamide]",7
7,"COc1cc(C)c(S(=O)(=O)N2CCCC2COCC(=O)NCC2CCC(c3ccccc3)(N3CCOCC3)CC2)c(C)c1 (stereo not shown) [Compound 152, 2-((1-(4-methoxy-2,6-dimethylphenylsulfonyl)pyrrolidin-2-yl)methoxy)-N-((4-morpholino-4-phenylcyclohexyl)methyl)acetamide]",32
8,"CN(CCOCC(=O)NC1CCC(Cc2ccccc2)(N2CCCC2)CC1)S(=O)(=O)c1c(Cl)cc(Cl)cc1Cl (stereo not shown) [Compound 189, N-(4-benzyl-4-(pyrrolidin-1-yl)cyclohexyl)-2-(2-(2,4,6-trichloro-N-methylphenylsulfonamido)ethoxy)acetamide]",54
9,"Cc1cc(S(=O)(=O)N2CCCCC2CCC(=O)N2CCC(c3cccc(F)c3)(N3CCN(C)CC3)CC2)c(C)cc1Cl (stereo not shown) [Compound 135, 3-(1-(4-chloro-2,5-dimethylphenylsulfonyl)piperidin-2-yl)-1-(4-(3-fluorophenyl)-4-(4-methylpiperazin-1-yl)piperidin-1-yl)propan-1-one]",4
10,"COc1cc(C)c(S(=O)(=O)N(C)CCOCC(=O)NC2CCC(c3ccccc3)(N3CCOCC3)CC2)c(C)c1 (stereo not shown) [Compound 167, 2-(2-(4-methoxy-N,2,6-trimethylphenylsulfonamido)ethoxy)-N-(4-morpholino-4-phenylcyclohexyl)acetamide]",25
11,"Cc1cc(S(=O)(=O)N2CCCCC2CCC(=O)N(C)CCCC2CCC(c3ccccc3)(N3CCCC3)CC2)c(C)cc1Cl (stereo not shown) [Compound 136, 3-(1-(4-chloro-2,5-dimethylphenylsulfonyl)piperidin-2-yl)-N-methyl-N-(3-(4-phenyl-4-(pyrrolidin-1-yl)cyclohexyl)propyl)propanamide]",66
12,"CN(CCC1CCC(Cc2ccccc2)(N2CCCC2)CC1)C(=O)CC1CCCCN1S(=O)(=O)c1cccc(C(F)(F)F)c1 (stereo not shown) [Compound 121, N-(2-(4-benzyl-4-(pyrrolidin-1-yl)cyclohexyl)ethyl)-N-methyl-2-(1-(3-(trifluoromethyl)phenylsulfonyl)piperidin-2-yl)acetamide]",24
13,"O=C(CC(NS(=O)(=O)c1ccc2ccccc2c1)c1ccccc1)N1CCC(c2ccccc2)(N2CCN(c3ccncc3)CC2)CC1 (stereo not shown) [Compound 98, N-(3-oxo-1-phenyl-3-(4-phenyl-4-(4-(pyridin-4-yl)piperazin-1-yl)piperidin-1-yl)propyl)naphthalene-2-sulfonamide]",65
14,"Cc1cc(C)c(S(=O)(=O)N2CCC(OCC(=O)NC3CCC(CCc4ccccc4)(N(C)C)CC3)C2)c(C)c1 (stereo not shown) [Compound 29, N-(4-(dimethylamino)-4-phenethylcyclohexyl)-2-(1-(mesitylsulfonyl)pyrrolidin-3-yloxy)acetamide]",48
15,"COc1cc(C)c(S(=O)(=O)N2CCCC2COCC(=O)NC2CCC(c3ccccc3)(N3CCOCC3)CC2)c(C)c1 (stereo not shown) [Compound 160, 2-((1-(4-methoxy-2,6-dimethylphenylsulfonyl)pyrrolidin-2-yl)methoxy)-N-(4-morpholino-4-phenylcyclohexyl)acetamide]",49
16,"Cc1cc(S(=O)(=O)N2CCCCC2CCC(=O)N(C)CCC2CCC(c3ccccc3)(N(C)C)CC2)c(C)cc1Cl (stereo not shown) [Compound 107, 3-(1-(4-chloro-2,5-dimethylphenylsulfonyl)piperidin-2-yl)-N-(2-(4-(dimethylamino)-4-phenylcyclohexyl)ethyl)-N-methylpropanamide]",99
17,"COc1cc(C)c(S(=O)(=O)N2CCCCC2COCC(=O)N(C)CC2CCC(CCc3ccccc3)(N3CCN(C)CC3)CC2)c(C)c1 (stereo not shown) [Compound 144, 2-((1-(4-methoxy-2,6-dimethylphenylsulfonyl)piperidin-2-yl)methoxy)-N-methyl-N-((4-(4-methylpiperazin-1-yl)-4-phenethylcyclohexyl)methyl)acetamide]",19
18,"CN(CCC1CCC(Cc2ccccc2)(N(C)C)CC1)C(=O)COCC1CCc2ccccc2N1S(=O)(=O)c1ccc(Cl)c(Cl)c1 (stereo not shown) [Compound 61, N-(2-(4-benzyl-4-(dimethylamino)cyclohexyl)ethyl)-2-((1-(3,4-dichlorophenylsulfonyl)-1,2,3,4-tetrahydroquinolin-2-yl)methoxy)-N-methylacetamide]",24
19,"COc1cc(C)c(S(=O)(=O)N2CCCCC2COCC(=O)N2CCC(Cc3ccccc3)(N3CCN(C)CC3)CC2)c(C)c1 (stereo not shown) [Compound 57, 1-(4-benzyl-4-(4-methylpiperazin-1-yl)piperidin-1-yl)-2-((1-(4-methoxy-2,6-dimethylphenylsulfonyl)piperidin-2-yl)methoxy)ethanone]",19
20,"CN(C)C1(CCc2ccccc2)CCN(C(=O)CC(NS(=O)(=O)c2ccc3ccccc3c2)c2ccccc2)CC1 (stereo not shown) [Compound 105, N-(3-(4-(dimethylamino)-4-phenethylpiperidin-1-yl)-3-oxo-1-phenylpropyl)naphthalene-2-sulfonamide]",55
21,"Cc1cc(S(=O)(=O)N2CCCCC2CCC(=O)N2CCC(c3ccccc3)(N(C)C)CC2)c(C)cc1Cl (stereo not shown) [Compound 123, 3-(1-(4-chloro-2,5-dimethylphenylsulfonyl)piperidin-2-yl)-1-(4-(dimethylamino)-4-phenylpiperidin-1-yl)propan-1-one]",69
22,"CN(C)C1(Cc2ccccc2)CCN(C(=O)COCC2CCc3ccccc3N2S(=O)(=O)c2ccc(Cl)c(Cl)c2)CC1 (stereo not shown) [Compound 36, 1-(4-benzyl-4-(dimethylamino)piperidin-1-yl)-2-((1-(3,4-dichlorophenylsulfonyl)-1,2,3,4-tetrahydroquinolin-2-yl)methoxy)ethanone]",44
23,"CN1CCN(C2(Cc3ccccc3)CCC(CN(C)C(=O)COCC3CCCN3S(=O)(=O)c3c(Cl)cc(Cl)cc3Cl)CC2)CC1 (stereo not shown) [Compound 168, N-((4-benzyl-4-(4-methylpiperazin-1-yl)cyclohexyl)methyl)-N-methyl-2-((1-(2,4,6-trichlorophenylsulfonyl)pyrrolidin-2-yl)methoxy)acetamide]",71
24,"CN1CCN(C2(c3ccccc3)CCN(C(=O)CC3CCCCN3S(=O)(=O)c3cccc(C(F)(F)F)c3)CC2)CC1 (stereo not shown) [Compound 64, 1-(4-(4-methylpiperazin-1-yl)-4-phenylpiperidin-1-yl)-2-(1-(3-(trifluoromethyl)phenylsulfonyl)piperidin-2-yl)ethanone]",12
25,"CN1CCN(C2(c3ccccc3)CCN(C(=O)CC(NS(=O)(=O)c3ccc4ccccc4c3)c3ccccc3)CC2)CC1 (stereo not shown) [Compound 82, N-(3-(4-(4-methylpiperazin-1-yl)-4-phenylpiperidin-1-yl)-3-oxo-1-phenylpropyl)naphthalene-2-sulfonamide]",22
26,"COc1cc(C)c(S(=O)(=O)N2CCCCC2COCC(=O)N(C)CCCC2CCC(Cc3ccccc3)(N3CCCC3)CC2)c(C)c1 (stereo not shown) [Compound 88, N-(3-(4-benzyl-4-(pyrrolidin-1-yl)cyclohexyl)propyl)-2-((1-(4-methoxy-2,6-dimethylphenylsulfonyl)piperidin-2-yl)methoxy)-N-methylacetamide]",14
27,"COc1cc(C)c(S(=O)(=O)N(C)CCOCC(=O)N(C)CCCC2CCC(Cc3ccccc3)(N3CCCC3)CC2)c(C)c1 (stereo not shown) [Compound 85, N-(3-(4-benzyl-4-(pyrrolidin-1-yl)cyclohexyl)propyl)-2-(2-(4-methoxy-N,2,6-trimethylphenylsulfonamido)ethoxy)-N-methylacetamide]",14
28,"Cc1cc(S(=O)(=O)N2CCCCC2CCC(=O)N2CCC(CCc3ccccc3)(N(C)C)CC2)c(C)cc1Cl (stereo not shown) [Compound 137, 3-(1-(4-chloro-2,5-dimethylphenylsulfonyl)piperidin-2-yl)-1-(4-(dimethylamino)-4-phenethylpiperidin-1-yl)propan-1-one]",34
